# Laboratory results as given in patent US20250221966A1, “RXFP1 AGONISTS” (BRISTOL-MYERS SQUIBB COMPANY, priority 2021, published 2025).
# Protein sequences, listed by entry. Tags and fused reporters are not part of them.
# UniProt Q9HBX9, whole entry: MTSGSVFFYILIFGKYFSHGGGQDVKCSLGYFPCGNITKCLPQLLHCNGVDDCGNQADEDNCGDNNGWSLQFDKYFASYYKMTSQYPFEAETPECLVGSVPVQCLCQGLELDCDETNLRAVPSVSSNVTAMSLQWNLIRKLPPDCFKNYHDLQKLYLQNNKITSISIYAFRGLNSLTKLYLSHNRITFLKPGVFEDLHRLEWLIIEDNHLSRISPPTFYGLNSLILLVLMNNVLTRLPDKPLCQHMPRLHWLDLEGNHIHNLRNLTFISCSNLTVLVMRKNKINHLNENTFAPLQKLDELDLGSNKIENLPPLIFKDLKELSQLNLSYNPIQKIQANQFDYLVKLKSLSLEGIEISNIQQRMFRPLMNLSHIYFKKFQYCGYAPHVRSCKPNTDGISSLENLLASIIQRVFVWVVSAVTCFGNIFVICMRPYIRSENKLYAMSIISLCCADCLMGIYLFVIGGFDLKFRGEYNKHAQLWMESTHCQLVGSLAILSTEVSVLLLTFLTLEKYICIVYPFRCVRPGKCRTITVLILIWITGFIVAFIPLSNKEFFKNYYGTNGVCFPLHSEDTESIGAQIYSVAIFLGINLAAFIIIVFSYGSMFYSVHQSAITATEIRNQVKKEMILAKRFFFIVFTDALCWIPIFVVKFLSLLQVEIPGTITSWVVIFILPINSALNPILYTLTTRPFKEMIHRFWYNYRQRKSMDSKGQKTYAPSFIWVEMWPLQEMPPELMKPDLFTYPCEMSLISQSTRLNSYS
# Molecular target: human RXFP1 (Homo sapiens, UniProt Q9HBX9)
# Test: RXFP1 cAMP assay (hRXFP1 HEK293 cAMP assay, HTRF)
# Details: read-out: cAMP hRXFP1 HEK293 Assay EC50, HEK293 cells stably expressing human RXFP1, 30 min at room temperature
row,SMILES,EC50 [nM]
1,COc1ccc(N2CCCCC2=O)cc1C(=O)N[C@@H]1C2CCC(/C2=C/C(F)(F)F)[C@@H]1C(=O)Nc1ccc(F)c(C(F)(F)F)c1 (some centres unmarked),1040
2,COc1ccc(-c2ccc(C3=NOC4CC(O)CC34)cc2F)cc1C(=O)N[C@H]1[C@@H](C(=O)Nc2ccc(F)c(C(F)(F)F)c2)[C@H]2CC[C@@H]1/C2=C\C1CCCC1 (some centres unmarked),8.2
3,COc1ccc(-c2cnn(CCO)c2)cc1C(=O)NC1C2CCC(C2=CC(F)(F)F)C1C(=O)Nc1ccc(F)c(C(F)(F)F)c1 (centres unmarked),1180
4,COc1ccc(-c2cc(NS(C)(=O)=O)ccc2C)cc1C(=O)N[C@@H]1C2CCC(C2=C(C)C)[C@@H]1C(=O)Nc1ccc(F)c(C(F)(F)F)c1 (some centres unmarked),33
5,"COc1ccc(C2=NOC3C4CCC(C4)C23)cc1C(=O)N[C@H]1[C@@H](C(=O)Nc2ccc(F)c(C(F)(F)F)c2)[C@H]2CC[C@@H]1/C2=C\C1CC1 (single isomer, unassigned) [685]",645
6,COc1ccc(-n2ccccc2=O)cc1C(=O)N[C@@H]1C2CCC(/C2=C/C(F)(F)F)[C@@H]1C(=O)Nc1ccc(F)c(C(F)(F)F)c1 (some centres unmarked),662
7,COc1ccc(C2=NOC3COCC23)cc1C(=O)N[C@H]1[C@@H](C(=O)NC2CC3(CCC3)C2)[C@H]2CC[C@@H]1/C2=C\C1CC1 (some centres unmarked),106
8,O=C(NC1CC(F)(F)C1)OC(c1ccc(F)c(-c2ccc(OCCO)c(C(=O)N[C@@H]3C4CCC(/C4=C/C4CC4)[C@@H]3C(=O)Nc3ccc(F)c(C(F)(F)F)c3)c2)c1)C(F)(F)F (some centres unmarked),71
9,COc1ccc([C@@H]2CO[C@H]3[C@@H]2OC[C@@H]3O)cc1C(=O)N[C@H]1[C@@H](C(=O)Nc2ccc(F)c(C(F)(F)F)c2)[C@H]2CC[C@@H]1/C2=C\C(F)(F)F,185
10,COc1ccc(-c2cc(NS(C)(=O)=O)ccc2F)cc1C(=O)N[C@@H]1C2CCC(/C2=C/C(F)(F)F)[C@@H]1C(=O)Nc1ccc(F)c(C(F)(F)F)c1 (some centres unmarked),20
11,COc1c(F)cc(C2=NOC3CC(CO)CC23)cc1C(=O)N[C@H]1[C@@H](C(=O)Nc2ccc(F)c(C(F)(F)F)c2)[C@H]2CC[C@@H]1/C2=C\C1CC1 (some centres unmarked),3.5
12,COc1ccc(-c2ccc(N3CCOCC3)nc2)cc1C(=O)N[C@@H]1C2CCC(/C2=C/C(F)(F)F)[C@@H]1C(=O)Nc1ccc(F)c(C(F)(F)F)c1 (some centres unmarked),72
13,"COc1ccc(C2=NOC3C4CC(C(O)C4O)C23)cc1C(=O)N[C@H]1[C@@H](C(=O)Nc2ccc(F)c(C(F)(F)F)c2)[C@H]2CC[C@@H]1/C2=C\C1CC1 (single isomer, unassigned)",507
14,COc1ccc(C2CC(O)C(=O)N2C)cc1C(=O)N[C@H]1[C@@H](C(=O)Nc2ccc(F)c(C(F)(F)F)c2)[C@H]2CC[C@@H]1/C2=C\C(F)(F)F (some centres unmarked),1200
15,O=C(NC1C2CCC(C2=CC(F)(F)F)C1C(=O)Nc1ccc(F)c(C(F)(F)F)c1)c1c(F)cccc1OCc1ccccc1 (centres unmarked),2520
16,COc1ccc(-c2cc(C(=O)O)ccc2F)cc1C(=O)N[C@@H]1C2CCC(/C2=C/C2CC2)[C@@H]1C(=O)Nc1cccc(OC(F)(F)F)c1 (some centres unmarked),15
17,COc1cc(F)c(F)cc1C(=O)N[C@@H]1C2CCC(C2=Cc2cccc(OC(F)(F)F)c2)[C@@H]1C(=O)Nc1ccc(F)c(C(F)(F)F)c1 (some centres unmarked),77
18,COc1ccc(C2CCNC2)cc1C(=O)NC1C2CCC(C2=CC(F)(F)F)C1C(=O)Nc1ccc(F)c(C(F)(F)F)c1 (centres unmarked),807
19,COc1ccc(C2CCCN(C(C)=O)C2)cc1C(=O)NC1C2CCC(C2=CC(F)(F)F)C1C(=O)Nc1ccc(F)c(C(F)(F)F)c1 (centres unmarked),2230

row,SMILES,EC50 [nM]
1,COc1ccc(C2CN(C(C)=O)C2)cc1C(=O)NC1C2CCC(C2=CC(F)(F)F)C1C(=O)Nc1ccc(F)c(C(F)(F)F)c1 (centres unmarked),1660
2,"COc1cc(C)c(C2=NOC3CC(O)CC23)cc1C(=O)N[C@H]1[C@@H](C(=O)Nc2ccc(F)c(C(F)(F)F)c2)[C@H]2CC[C@@H]1/C2=C\C1CC1 (single isomer, unassigned) [658]",314
3,COc1ccc(N2CC(CNC(=O)OC(C)(C)C)CC2=O)cc1C(=O)N[C@H]1[C@@H](C(=O)Nc2ccc(F)c(C(F)(F)F)c2)[C@H]2CC[C@@H]1/C2=C\C1CC1 (some centres unmarked),1470
4,COc1ccc(-c2cc[nH]n2)cc1C(=O)NC1C2CCC(C2=CC(F)(F)F)C1C(=O)Nc1ccc(F)c(C(F)(F)F)c1 (centres unmarked),707
5,COc1ccc(N2CCCS2(=O)=O)cc1C(=O)N[C@@H]1C2CCC(/C2=C/C(F)(F)F)[C@@H]1C(=O)Nc1ccc(F)c(C(F)(F)F)c1 (some centres unmarked),338
6,CC(C)=C1C2CCC1[C@H](C(=O)Nc1ccc(F)c(C(F)(F)F)c1)[C@@H]2NC(=O)c1cc(C#N)ccc1F (some centres unmarked),1100
7,COc1ccc(N2CCC(O)C2)cc1C(=O)N[C@@H]1C2CCC(/C2=C/C(F)(F)F)[C@@H]1C(=O)Nc1ccc(F)c(C(F)(F)F)c1 (some centres unmarked),1360
8,O=C(N[C@@H]1C2CCC(/C2=C/C(F)(F)F)[C@@H]1C(=O)Nc1ccc(F)c(C(F)(F)F)c1)c1cc(Br)ccc1OCCO (some centres unmarked),1090
9,COc1ccc(N2CCCC(N)C2)cc1C(=O)NC1C2CCC(C2=CC(F)(F)F)C1C(=O)Nc1ccc(F)c(C(F)(F)F)c1 (centres unmarked),3560
10,"COc1ccc(C2=NOC3C4CCC(C4)C23)cc1C(=O)N[C@H]1[C@@H](C(=O)Nc2ccc(F)c(C(F)(F)F)c2)[C@H]2CC[C@@H]1/C2=C\C1CC1 (single isomer, unassigned) [469]",4.3
11,"COc1cc(C)c(C2=NOC3CC(O)CC23)cc1C(=O)N[C@H]1[C@@H](C(=O)Nc2ccc(F)c(C(F)(F)F)c2)[C@H]2CC[C@@H]1/C2=C\C1CC1 (single isomer, unassigned) [486]",7.8
12,"COc1ccc(C2=NOC3CN(C(=O)CO)CC23)cc1C(=O)N[C@H]1[C@@H](C(=O)Nc2ccc(F)c(C(F)(F)F)c2)[C@H]2CC[C@@H]1/C2=C\C1CC1 (single isomer, unassigned)",2.2
13,COc1ccc(N2CCCC2=O)cc1C(=O)N[C@H]1[C@@H](C(=O)Nc2ccc(F)c(C(F)(F)F)c2)[C@H]2CC[C@@H]1/C2=C\C(F)(F)F,788
14,COc1ccc(C2CN(C(=O)C3CCC(O)CC3)C2)cc1C(=O)NC1C2CCC(C2=CC2CC2)C1C(=O)Nc1ccc(F)c(C(F)(F)F)c1 (centres unmarked),56.3
15,COc1ccccc1C(=O)NC1C2CCC(C2=CC(F)(F)F)C1C(=O)Nc1ccc(F)c(C(F)(F)F)c1 (centres unmarked),750
16,COc1ccc(N2CCC(OCc3ccccc3)C2)cc1C(=O)N[C@@H]1C2CCC(/C2=C/C(F)(F)F)[C@@H]1C(=O)Nc1ccc(F)c(C(F)(F)F)c1 (some centres unmarked),369
17,"COc1ccc(C2=NOC3C4CC(C(=O)N4)C23)cc1C(=O)N[C@H]1[C@@H](C(=O)Nc2ccc(F)c(C(F)(F)F)c2)[C@H]2CC[C@@H]1/C2=C\C1CC1 (single isomer, unassigned) [576]",69.2
18,CNC(=O)OC(C(=O)OC)c1ccc(F)c(-c2ccc(OC)c(C(=O)N[C@H]3[C@@H](C(=O)Nc4ccc(F)c(C(F)(F)F)c4)[C@H]4CC[C@@H]3/C4=C\C3CC3)c2)c1 (some centres unmarked),3
19,"COc1cc(C)c(C2=NOC3CC(O)CC23)cc1C(=O)N[C@H]1[C@@H](C(=O)Nc2ccc(F)c(C(F)(F)F)c2)[C@H]2CC[C@@H]1/C2=C\C1CC1 (single isomer, unassigned) [471]",4.5

row,SMILES,EC50 [nM]
1,"COc1cc(C)c(C2=NOC3CC(O)CC23)cc1C(=O)N[C@H]1[C@@H](C(=O)Nc2ccc(F)c(C(F)(F)F)c2)[C@H]2CC[C@@H]1/C2=C\C1CC1 (single isomer, unassigned) [590]",86.1
2,COc1ccc(C2CCOCC2)cc1C(=O)NC1C2CCC(C2=CC(F)(F)F)C1C(=O)Nc1ccc(F)c(C(F)(F)F)c1 (centres unmarked),747
3,COc1cc(F)c(F)cc1C(=O)N[C@@H]1C2CCC([C@@H]1C(=O)Nc1ccc(F)c(C(F)(F)F)c1)C21OCC(c2ccccc2)O1 (some centres unmarked),4500
4,"COc1c(F)cc(C2=NOC3CC(C)(CO)CC23)cc1C(=O)N[C@H]1[C@@H](C(=O)N[C@H](C)C2(C)CC2)[C@H]2CC[C@@H]1/C2=C\C1CC1 (single isomer, unassigned)",0.4
5,COc1ccc(C2=NOC3(CCN(C(=O)OC(C)(C)C)C3)C2)cc1C(=O)N[C@H]1[C@@H](C(=O)Nc2ccc(F)c(C(F)(F)F)c2)[C@H]2CC[C@@H]1/C2=C\C1CC1 (some centres unmarked),359
6,"COc1ccc(N2CCCC(C(=O)O)C2)cc1C(=O)N[C@@H]1C2CCC(/C2=C/c2ccccc2)[C@@H]1C(=O)Nc1ccc(F)c(C(F)(F)F)c1 (single isomer, unassigned)",370
7,COc1ccc(-c2ccc(N3CCOCC3)nc2)cc1C(=O)N[C@@H]1C2CCC(/C2=C/C(C)C)[C@@H]1C(=O)Nc1ccc(F)c(C(F)(F)F)c1 (some centres unmarked),25
8,COc1ccc(-c2cc(NS(C)(=O)=O)ccc2F)cc1C(=O)N[C@@H]1C2CCC(C2=Cc2cnoc2)[C@@H]1C(=O)Nc1ccc(F)c(C(F)(F)F)c1 (some centres unmarked),8
9,COc1ccc(-c2cc(C(NC(=O)c3cccc(Cl)c3)C(=O)O)ccc2F)cc1C(=O)N[C@@H]1C2CCC(/C2=C/C(F)(F)F)[C@@H]1C(=O)Nc1ccc(F)c(C(F)(F)F)c1 (some centres unmarked),5
10,COc1ccc(C2=NO[C@H]3C[C@@H](O)C[C@@H]23)cc1C(=O)N[C@@H]1C2CCC(/C2=C/C(F)(F)F)[C@@H]1C(=O)Nc1ccc(F)c(C(F)(F)F)c1 (some centres unmarked),85
11,COc1ccc(C2=NOC3COCC23)cc1C(=O)N[C@H]1[C@@H](C(=O)NC2(C)CCC2)[C@H]2CC[C@@H]1/C2=C\C1CC1 (some centres unmarked),23.9
12,"COc1ccc(C2=NOC3C4CCC(C4)C23)cc1C(=O)N[C@H]1[C@@H](C(=O)Nc2ccc(F)c(C(F)(F)F)c2)[C@H]2CC[C@@H]1/C2=C\C1CC1 (single isomer, unassigned) [428]",6
13,COc1ccc(C2=NOC3(CCOCC3)C2)cc1C(=O)N[C@@H]1C2CCC(/C2=C/C(F)(F)F)[C@@H]1C(=O)Nc1ccc(F)c(C(F)(F)F)c1 (some centres unmarked),786
14,COc1ccc(-c2cc(C(OC(=O)NC3CC(F)(F)C3)C(F)(F)F)ccc2F)cc1C(=O)N[C@@H]1C2CCC(/C2=C/C2CC2)[C@@H]1C(=O)Nc1ccc(F)c(C(F)(F)F)c1 (some centres unmarked),1
15,COc1ccc(-n2ncccc2=O)cc1C(=O)N[C@H]1[C@@H](C(=O)Nc2ccc(F)c(C(F)(F)F)c2)[C@H]2CC[C@@H]1/C2=C\C(F)(F)F,213
16,"COc1ccc(C2=NOC3C4CC(C(=O)N4)C23)cc1C(=O)N[C@H]1[C@@H](C(=O)Nc2ccc(F)c(C(F)(F)F)c2)[C@H]2CC[C@@H]1/C2=C\C1CC1 (single isomer, unassigned) [631]",185
17,COc1ccc(-c2cc(C(=O)O)ccc2F)cc1C(=O)N[C@@H]1C2CCC(/C2=C/C2CC2)[C@@H]1C(=O)NC(C)(C)c1cccc(C(F)(F)F)c1 (some centres unmarked),1700
18,COc1cc(F)c(F)cc1C(=O)N[C@H]1[C@@H](C(=O)Nc2ccc(F)c(C(F)(F)F)c2)[C@H]2CC[C@@H]1C2=C1C=CC=C1,350
